In patent US20250387379A1, “ARYL-ANILINE AND HETEROARYL-ANILINE COMPOUNDS FOR TREATMENT OF SKIN CANCERS” (NFLECTION THERAPEUTICS, INC., priority 2018, published 2025) one finds IC50 data, which are given here for 1 compound.

By UniProt entry, the sequences of proteins in these tests, tags left out.
UniProt Q02750, whole entry: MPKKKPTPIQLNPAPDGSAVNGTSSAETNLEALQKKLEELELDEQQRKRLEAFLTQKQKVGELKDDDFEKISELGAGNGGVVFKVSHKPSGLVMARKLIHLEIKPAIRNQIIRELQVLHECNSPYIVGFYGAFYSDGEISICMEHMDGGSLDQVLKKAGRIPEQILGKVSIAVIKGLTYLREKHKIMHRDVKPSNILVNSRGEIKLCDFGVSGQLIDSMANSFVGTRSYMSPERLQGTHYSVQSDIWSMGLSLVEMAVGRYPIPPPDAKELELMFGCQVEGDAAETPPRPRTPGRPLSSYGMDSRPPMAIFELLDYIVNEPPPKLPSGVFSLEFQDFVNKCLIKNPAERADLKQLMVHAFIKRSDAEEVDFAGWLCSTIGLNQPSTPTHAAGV

For the assay, the target named is MEK1 (Homo sapiens (Human), UniProt Q02750). The assay can be described thus: MEK Inhibition Assay-1 (33P-ATP, P81 filter-binding; Example 4). The conditions noted are these: read-out: Assay 1: biochemical MEK IC50, Table 10, formula (IV). On the procedure:
The following procedure can be used to measure biochemical activity. MEK1 inhibitory activity of compounds were tested using the following procedure. […] Nat Biotechnol. 2011, 29(11), 1039-45.
• Reaction buffer: 20 mM Hepes (pH 7.5), 10 mM MgCl2, 1 mM EGTA, 0.02% Brij35, 0.02 mg/mL BSA, 0.1 mM Na3VO4, 2 mM DTT, 1% DMSO • Enzyme: MEK1, Invitrogen cat #PV3303 • N-terminal His-tagged recombinant human full length protein, expressed in insect cells. Activated in vitro by RAF1. MW=49.2 kDa, GenBank Accession No. NP_002746. • Substrate: 5 μM ERK2 (K52R), • Kinase-dead mutant, (GenBank Accession No. NM_0011949), aa2-358 with N-terminal His6 tag, MW=43.63 kDa, expressed in E. coli.
The substrate was prepared in freshly prepared Reaction Buffer. The kinase was delivered into the substrate solution and gently mixed. Test compounds were delivered in 100% DMSO into the kinase reaction mixture by Acoustic technology (Echo550; nanolitter range), and incubated for 20 min at room temperature. ^33P-ATP was delivered into the reaction mixture to initiate the reaction. The reaction mixture was incubated for 2 hours at room temperature. Kinase activity was detected by P81 filter-binding method.

pIC50: −log10 of the molar value.

Turning to `CC(=O)c1sc(Nc2ccc(I)cc2F)c(C(=O)NOCC2COC2)c1C`, the pIC50 – broadly, −log10 of the IC50, conventionally taken in molar units – is 5.30 to 6.00.
